# Experimental data published in publication PMC11748481.
# Some compounds may have been tested in ways that are not shown here.
# Test: Plasma pharmacokinetics after subcutaneous administration (noncompartmental analysis)
# Details: 300 μg/kg subcutaneous
# [1] = male Sprague–Dawley rats, mean ± S.E.M (n = 6)
smiles,measurement,setting,value
CCC(=O)N(c1ccccc1)C1CCN(CCc2ccccc2)CC1,Tmax,male Sprague–Dawley rats (n = 6),30 min
same,AUC0-∞,[1],112.83 ± 10.82 ng/mL X h
same,Cmax,[1],82.12 ± 11.78 ng/mL
